## Antibody variant affinities, Ab-95 light chain, assay 2

Values reported by Engelhart et al. 2022, doi:10.1038/s41597-022-01779-4 (FLAb copy).

The target is the same throughout: PDVDLGDISGINAS, from the HR2 region of SARS-CoV-2 spike.

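Library AAYL52 holds single substitutions and randomly drawn double and triple substitutions in the CDRs. The scFvs were displayed on barcoded MATa yeast, the peptide on MATalpha yeast. After mating in shaken culture at 30 °C for 16 h, diploids were selected and their barcode pairs sequenced. Scores were corrected for input abundance and mapped to Kd with protein pairs of known affinity run in the same pool. There are three technical replicates.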

The variants keep the heavy chain, the linker and the frameworks of Ab-95 (scFv order VH, a (GGGGS)3 linker, VL).
VH: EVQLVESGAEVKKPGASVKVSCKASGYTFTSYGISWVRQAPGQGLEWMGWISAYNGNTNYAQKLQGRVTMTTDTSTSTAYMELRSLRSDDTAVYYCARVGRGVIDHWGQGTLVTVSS
VL: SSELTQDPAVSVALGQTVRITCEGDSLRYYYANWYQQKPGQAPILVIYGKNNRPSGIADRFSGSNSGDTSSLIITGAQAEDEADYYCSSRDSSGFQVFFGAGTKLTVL

The parent's light chain CDRs are EGDSLRYYYAN, GKNNRPS, SSRDSSGFQVF; each variant's own CDRs replace them letter for letter. Every variant below is changed at N52 of the VL (sequential numbering). Numbers give log10(Kd / nM), so 0 is 1 nM and 3 is 1 µM. Smaller is tighter. A mean of the replicates is given; it leaves out those without a signal. An entry "nd" has no value in the source: the pair was not observed among the diploids in any replicate. This suggests poor binding but is not conclusive. Entries are sorted by rising average, undetected variants last. Parent in this assay: reference entry 2.31, copy in this library 2.25.

For KGDSLRYYYAN / GKNIRPS / SSRDSSGFQVF, the assay gave 1.50 (3 of 3 replicates; controls 3 of 9). The variant EGDSLRGYYAN / GKNFRPS / SSRDSSGFGVF gave 1.50 (3 of 3 replicates; controls 6 of 9). The variant EGDSLRYYYAN / GKNGRPS / SSRDSSGFQVF showed 1.88 (3 of 3 replicates; controls 2 of 9). The variant EGDSLRYRYAN / GKNQRPS / SSRDSSGQQVF showed 1.91 (3 of 3 replicates; controls 1 of 9). The variant EGDSLRYYYPN / GKNCRPS / SSRDSSGAQVF showed 2.32 (3 of 3 replicates; controls 4 of 9). For EGDSLRGYYAN / GKNERPS / SSRDSSGFPVF, the assay gave 2.37 (3 of 3 replicates; controls 1 of 9). The variant EGDSLRYYYAN / GKNVRPS / SSRDSSGFQVF gave 2.53 (3 of 3 replicates; controls 1 of 9).

For EGDSLDYYYAN / GKNFRPS / MSRDSSGFQVF, the assay gave 2.63 (3 of 3 replicates; controls 2 of 9). The variant EGDSLRYDYAN / GKNDRPS / SSRDSSGFQEF showed 2.69 (3 of 3 replicates; controls 0 of 9). For EGDSLRYYYAN / GKNGRPS / SSADSSGFQVF, the assay gave 2.72 (3 of 3 replicates; controls 4 of 9). The variant EGDSLRYYYAL / GKNLRPS / SSRDSSGFQVF gave 2.73 (3 of 3 replicates; controls 0 of 9). For EHDSLRYYYAN / GKNARPA / SSRDSSGFQVF, the assay gave 2.82 (3 of 3 replicates; controls 3 of 9). The variant EGDSLRYYYLN / GKNFRPS / SSRDSSGRQVF showed 2.86 (1 of 3 replicates; controls 3 of 9). The variant EGDSLRYYYAN / GDNWRPS / SSRDSSGFQIF gave 2.98 (3 of 3 replicates; controls 2 of 9).

The variant EGGSLRYYYAL / GKNARPS / SSRDSSGFQVF showed 3.05 (3 of 3 replicates; controls 2 of 9). The variant EGESLRYYYAN / GKNRRPI / SSRDSSGFQVF gave 3.16 (3 of 3 replicates; controls 3 of 9). With EGDSLRYYYAN / GKNKRPS / SSRDSSGCQMF the result was 3.19 (3 of 3 replicates; controls 0 of 9). With EFDSLRYYYAN / GKNYRPS / SSRDSSKFQVF the result was 3.32 (1 of 3 replicates; controls 4 of 9). For IGDSLTYYYAN / GKNKRPS / SSRDSSGFQVF, the assay gave 3.32 (3 of 3 replicates; controls 2 of 9). The variant EGDSLFYYYAW / GKNVRPS / SSRDSSGFQVF showed 3.52 (3 of 3 replicates; controls 2 of 9). For EGDSLRYYYTN / GKNHRPS / SSRDSSGDQVF, the assay gave 3.52 (3 of 3 replicates; controls 5 of 9).

The variant EGLSLRYYYAN / GKNRRRS / SSRDSSGFQVF showed 3.57 (3 of 3 replicates; controls 7 of 9). The variant EGDHLRYYYAD / GKNPRPS / SSRDSSGFQVF gave 3.59 (3 of 3 replicates; controls 3 of 9). The variant EGDSWRYYYAN / GNNDRPS / SSRDSSGFQVF gave 3.62 (3 of 3 replicates; controls 1 of 9). For EGDSLRYYYAN / GKNGRPS / SSCDSSGFQVD, the assay gave 3.62 (1 of 3 replicates; controls 3 of 9). The variant EGDSLRYYYQN / TKNPRPS / SSRDSSGFQVF gave 3.63 (2 of 3 replicates; controls 6 of 9). With EGDSLRYYYAN / GKNPRPS / SSRDSSGFELF the result was 3.63 (2 of 3 replicates; controls 3 of 9). The variant EGDSLRYYYAK / GKNQRPS / SSRDSSGFQVF showed 3.65 (1 of 3 replicates; controls 0 of 9).

The variant EGDSLRYYWAN / GKNQRPS / SSRDSSGFLVF showed 3.67 (3 of 3 replicates; controls 3 of 9). With EGDSLGYYYAN / GKNVFPS / SSRDSSGFQVF the result was 3.81 (1 of 3 replicates; controls 3 of 9). The variant EGDSGRYYYAN / GKNFRPS / SSRDSRGFQVF showed 3.93 (1 of 3 replicates; controls 2 of 9). The variant EGDSLRYYYAN / GKNPRPS / LSRDSSGFQVQ gave 3.98 (2 of 3 replicates; controls 1 of 9). With EGDSLRYYYAR / GKNMRPS / SSRDSSGFYVF the result was 4.09 (1 of 3 replicates; controls 4 of 9). With EGDSLRYYYAN / GKNPRPS / SSRCSWGFQVF the result was 4.12 (3 of 3 replicates; controls 6 of 9). The variant EGDSLRYYYAV / GKNTRPS / SSRDSSGFQQF gave 4.19 (3 of 3 replicates; controls 4 of 9).

With EGDSLRYYVAN / GKNHRPS / SSVDSSGFQVF the result was 4.26 (3 of 3 replicates; controls 6 of 9). The variant EGDWLRYYYAN / GKNRRPS / HSRDSSGFQVF gave 4.26 (2 of 3 replicates; controls 5 of 9). The variant EGDSARYYYAN / GKNQRPS / RSRDSSGFQVF gave 4.27 (2 of 3 replicates; controls 2 of 9). The variant EGDSLIYYYAN / GKNCRPS / SSRDSSTFQVF showed 4.58 (1 of 3 replicates; controls 1 of 9). With EGWSLRAYYAN / GKNFRPS / SSRDSSGFQVF the result was 5.54 (1 of 3 replicates; controls 4 of 9). For EGDSLRYYYAN / GKNARCS / SSRDSSGFQVI, the assay gave nd (0 of 3 replicates; controls 1 of 9). The variant EGDSLRYYYAN / GKNKRWS / SSRDSSGFQVF showed nd (0 of 3 replicates; controls 1 of 9).

The variant EGDSLRYYYAN / GKNLRPS / SSMDSNGFQVF showed nd (0 of 3 replicates; controls 1 of 9). The variant EGDSLRYYYAN / RKNVRPS / SSRDSSKFQVF gave nd (0 of 3 replicates; controls 2 of 9). With EGDWLRYYYAN / GKCHRPS / SSRDSSGFQVF the result was nd (0 of 3 replicates; controls 1 of 9). The variant EGDSLRYYYAN / WKNERPS / SSRDGSGFQVF showed nd (0 of 3 replicates; controls 1 of 9). With EGDSLRYYYAY / GKKLRPS / SSRDSSGFQVF the result was nd (0 of 3 replicates; controls 0 of 9).

The last 3 entries again:

With EGDWLRYYYAN / GKCHRPS / SSRDSSGFQVF the result was nd (0 of 3 replicates; controls 1 of 9).
With EGDSLRYYYAN / WKNERPS / SSRDGSGFQVF the result was nd (0 of 3 replicates; controls 1 of 9).
With EGDSLRYYYAY / GKKLRPS / SSRDSSGFQVF the result was nd (0 of 3 replicates; controls 0 of 9).

Three control strains display no target. For library AAYL52, 28% of the pairings with them gave a signal, with a median of 3.91 and one signal in twenty below 2.90, so weak values seen in few replicates may be background. Also given: how often the same scFv was detected with the empty control strains.